## Apparent affinities of Ab-95 variants for a coronavirus HR2 peptide

Binding partner: SARS-CoV-2 spike HR2 peptide, sequence PDVDLGDISGINAS.

The variants keep the heavy chain, the linker and the frameworks of Ab-95 (scFv order VH, the linker GGGGSGGGGSGGGGS, VL).
VH: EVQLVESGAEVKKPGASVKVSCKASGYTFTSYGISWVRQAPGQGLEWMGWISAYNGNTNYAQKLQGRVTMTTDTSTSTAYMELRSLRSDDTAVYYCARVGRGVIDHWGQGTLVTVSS
VL: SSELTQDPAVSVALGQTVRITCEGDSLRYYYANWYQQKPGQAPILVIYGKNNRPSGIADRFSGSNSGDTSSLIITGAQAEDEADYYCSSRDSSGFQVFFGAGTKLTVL

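In library AAYL52, one, two or three CDR residues were substituted; doubles and triples were drawn at random. The scFvs were displayed on barcoded MATa yeast, the peptide on MATalpha yeast. Pairs that bind mate more often; barcode pairs of the diploids are counted by sequencing. Scores were corrected for input abundance and mapped to Kd with protein pairs of known affinity run in the same pool. There are three technical replicates.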

Each variant is given by its three light chain CDRs, as the data file delimits them; those of the parent are EGDSLRYYYAN, GKNNRPS, SSRDSSGFQVF.
Values are apparent Kd, the geometric mean of the replicates that gave a signal; lower means stronger binding.
A pair that was not seen in any replicate is written "nd"; this usually means weak binding, but a binder can also be missed.
Entries are sorted by rising average, undetected variants last.
Empty control strains, which show no peptide, gave a signal in 28% of pairings with library AAYL52; the median was 8.2 µM and 95% of these signals were weaker than 800 nM. No background was subtracted. Also given: how often the same scFv was detected with the empty control strains.

Kd,seen in,empty controls,CDR-L1,CDR-L2,CDR-L3
30 nM,3/3,5/9,EGDSLKYYAAN,GKNNRPS,RSRDSSGFQVF
150 nM,3/3,1/9,EGDSLRYQFAN,MKNNRPS,SSRDSSGFQVF
180 nM,3/3,1/9,EGDSLRYYYAN,GKNNRPS,SSRWKHGFQVF
210 nM,3/3,5/9,EGISLRYYYAN,GKNNRDS,SSRSSSGFQVF
210 nM,3/3,1/9,EGDYLRYYYAN,GKNNRPS,SSRDSSGFQVK
260 nM,3/3,2/9,EGDSLRKYYAN,GANNRPK,SSRDSSGFQVF
280 nM,3/3,1/9,FGDSLRNYYAN,GKNNRPS,SSRASSGFQVF
330 nM,1/3,2/9,VGDSLRYYYAN,GKNNRTS,QSRDSSGFQVF
390 nM,3/3,0/9,EGDSLRYYYCN,GKNARPS,SSRDSSGFQVF
400 nM,3/3,1/9,EGDSLRYYYAN,GKNNRPS,DSRDSSGFQKF
420 nM,3/3,2/9,EGDSLRYLYAN,GKNNRPS,SSRDSSGFQIF
490 nM,3/3,0/9,EGDSERYEYAN,GKNNRPS,SSRDSKGFQVF
600 nM,3/3,1/9,EGDSLGYRYAN,GKNNGPS,SSRDSSGFQVF
690 nM,3/3,1/9,CGDSLRYYYAN,GKENRPS,SDRDSSGFQVF
810 nM,3/3,0/9,EGRSLRYYYAN,GKNNRMS,SSRDSEGFQVF
970 nM,3/3,4/9,EGDSLRYCYAK,GMNNRPS,SSRDSSGFQVF
1.5 µM,3/3,6/9,EGDSLFYYYAN,GCNNRPS,SSRDSSGRQVF
1.5 µM,3/3,2/9,CGDSCRYQYAN,GKNNRPS,SSRDSSGFQVF
2.0 µM,3/3,4/9,EGDSLTYYYAN,GKNNRPS,SSRDSFGCQVF
2.1 µM,2/3,0/9,NGDSLRYYYAN,GKFNRPF,SSRDSSGFQVF
2.3 µM,3/3,4/9,EGDSLRDYYAN,GKNNRRS,SSRWSSGFQVF
2.4 µM,3/3,6/9,EGDSLYYYYAN,GKFERPS,SSRDSSGFQVF
2.6 µM,3/3,2/9,EGDSLRYYYAN,GKQNRPE,SSRDSSDFQVF
2.7 µM,3/3,4/9,DGDRLRYYYAN,GKNNRPS,SSRDSSGFQVF
4.4 µM,1/3,0/9,EGDSLRYYYAK,GKNQRPS,SSRDSSGFQVF
5.2 µM,2/3,2/9,FGDSLRYCYAN,GKNLRPS,SSRDSSGFQVF
5.3 µM,1/3,3/9,EGDSLPCYYAN,GKNNRPS,SSRDSSGPQVF
5.7 µM,2/3,2/9,EGDSLRYYYAN,GKNNRPS,SWTDSSGFQVF
6.3 µM,2/3,4/9,EGDSLRYYYAE,GKNNRPS,SSRESSGFQVM
6.3 µM,2/3,1/9,EGDSLRYYYAN,IKNNRES,SSRDSSGFEVF
6.6 µM,3/3,3/9,EGSYLRYYYAN,GKNNRPS,SSRDSGGFQVF
7.0 µM,2/3,3/9,EGDSLRYYYAN,GKCNRVS,CSRDSSGFQVF
9.4 µM,3/3,4/9,EGYSVRYYYAN,GKNNRPS,SSRDSSGKQVF
10 µM,2/3,3/9,EGDSPRYYYAN,GKNNNPS,SSRDSSGFYVF
10 µM,1/3,1/9,EGDSLRYYYAN,DKNNRPS,CSRPSSGFQVF
11 µM,2/3,4/9,MGDSLRYYYAN,GKNNRPS,SSQDSSTFQVF
12 µM,3/3,6/9,EGDSQRYYYAN,GKNNRPS,GSRDSSGFQVF
12 µM,2/3,3/9,EGDCLRYYYAN,GKNNRPS,SSRESSGFQVC
15 µM,2/3,5/9,EGDSLRYYYVN,GVNNRTS,SSRDSSGFQVF
16 µM,2/3,3/9,EGDSLRYYYAN,GKNNRPS,SSRDSSRWMVF
22 µM,2/3,3/9,EGDSLRYYYDN,GKNNRPS,SQRYSSGFQVF
23 µM,1/3,1/9,EGDSLRYYYAK,IKNNRPF,SSRDSSGFQVF
34 µM,1/3,1/9,ERDSLRVYYAN,GKNNRPS,SSRDSSGFQVR
38 µM,1/3,4/9,EGDSLRYYYAN,GKNWRPR,SSRDSSNFQVF
39 µM,2/3,6/9,EGDSLRYYYAR,GKNNRPV,SSRDSSGFQVF
81 µM,1/3,0/9,EGDSLRYYYAN,GKLNRPS,SSRDSSHIQVF
nd,0/3,0/9,EGDSLRYYYAR,GKNNRPS,SSRDMKGFQVF
nd,0/3,5/9,EGDSLRDYYAN,HFNNRPS,SSRDSSGFQVF
nd,0/3,0/9,EGDSLRYYYAN,GKFNRPA,CSRDSSGFQVF
nd,0/3,3/9,ECDSLRYYIVN,GKNNRPS,SSRDSSGFQVF
nd,0/3,2/9,EGDSLRYYYAN,WKNNRPS,SSRDSSGGQKF
nd,0/3,2/9,EGDSLRYYYAN,GDNNRPS,SSRDCSGFQVF
nd,0/3,0/9,EFDSLRYYYAN,GKNNRPS,SSRDFSGFQYF
nd,0/3,2/9,EGYELRYYYAN,GKNNRQS,SSRDSSGFQVF
nd,0/3,3/9,WGDSLRYYYAQ,GKNNRPS,FSRDSSGFQVF

Picked from the list: the 9 lowest averages where every replicate gave a value.

CDR-L1	CDR-L2	CDR-L3	Kd	seen in	empty controls
EGDSLKYYAAN	GKNNRPS	RSRDSSGFQVF	30 nM	3/3	5/9
EGDSLRYQFAN	MKNNRPS	SSRDSSGFQVF	150 nM	3/3	1/9
EGDSLRYYYAN	GKNNRPS	SSRWKHGFQVF	180 nM	3/3	1/9
EGISLRYYYAN	GKNNRDS	SSRSSSGFQVF	210 nM	3/3	5/9
EGDYLRYYYAN	GKNNRPS	SSRDSSGFQVK	210 nM	3/3	1/9
EGDSLRKYYAN	GANNRPK	SSRDSSGFQVF	260 nM	3/3	2/9
FGDSLRNYYAN	GKNNRPS	SSRASSGFQVF	280 nM	3/3	1/9
EGDSLRYYYCN	GKNARPS	SSRDSSGFQVF	390 nM	3/3	0/9
EGDSLRYYYAN	GKNNRPS	DSRDSSGFQKF	400 nM	3/3	1/9

For reference, the parent read 200 nM as the reference entry and 180 nM as a member of this library.

From the AlphaSeq antibody data of Engelhart et al. 2022 (doi:10.1038/s41597-022-01779-4), copy in the FLAb collection.